Test results from PubChem BioAssay (EPA / NIEHS).
The list shows a part of the results, in another mix than the full data. Results filed as inconclusive are left out. Active and inactive are the calls of the source. The calls were made as follows, unless noted: active = hit-call score of the fitted dose curve at least 0.9, where 1 is the maximum; inactive = score below 0.9.

Chains of the proteins cited; added tags and fusions are not shown.
UniProt P03372, whole entry: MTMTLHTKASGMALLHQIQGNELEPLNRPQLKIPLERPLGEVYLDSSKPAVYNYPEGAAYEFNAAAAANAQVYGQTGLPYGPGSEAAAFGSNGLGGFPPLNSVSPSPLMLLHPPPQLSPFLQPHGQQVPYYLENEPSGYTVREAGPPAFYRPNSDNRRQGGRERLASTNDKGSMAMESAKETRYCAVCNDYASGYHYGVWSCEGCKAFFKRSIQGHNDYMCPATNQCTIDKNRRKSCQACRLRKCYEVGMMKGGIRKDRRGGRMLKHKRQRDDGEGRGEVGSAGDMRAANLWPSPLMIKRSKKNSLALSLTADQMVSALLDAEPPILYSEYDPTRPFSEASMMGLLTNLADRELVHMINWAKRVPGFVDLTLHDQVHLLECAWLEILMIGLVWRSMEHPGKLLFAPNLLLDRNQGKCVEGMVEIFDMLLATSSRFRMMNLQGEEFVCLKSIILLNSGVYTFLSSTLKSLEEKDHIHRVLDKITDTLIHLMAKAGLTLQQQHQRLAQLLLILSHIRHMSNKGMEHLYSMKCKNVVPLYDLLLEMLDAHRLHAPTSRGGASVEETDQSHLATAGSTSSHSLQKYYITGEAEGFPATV

How the values were obtained:
[1] = CCTE_Deisenroth_AIME_384WELL_CTox_Active: Cytotoxicity Assessment (CTOX) in CCTE's 384-well Estrogen Receptor Transactivation Assay with AIME metabolic competence (metabolism positive), Deisenroth Lab (AID 2284037; active = hit-call score of the fitted dose curve at least 0.9, where 1 is the maximum;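 also: chemicals first conditioned 2 h by alginate-bound induced rat liver S9 before cells; activity means signal loss indicating cell death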)
How it was run: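 Cytotoxicity in VM7Luc4E2 breast cells, 24 hour, measured as protease-substrate fluorescence loss, after 2-hour metabolic conditioning with induced rat hepatic S9 in alginate microspheres. Concentrations 0.002 - 200 uM, 10 points, bidirectional fitting.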

[2] = CCTE_Shafer_MEA_acute_burst_percentage_std: CCTE's Neural Acute Assay for Standard Deviation of Burst Percentage, Shafer Lab (AID 2284018);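 also: fitted in the negative direction so actives lower burst percentage SD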
Procedure: (§1) CCTE_Shafer_MEA_acute assay is conducted using Axion Biosystems 48 well microelectrode array (MEA) plates and Maestro recording system. Each well of the MEA plate contains a grid of 16 microelectrodes embedded in the culture surface. Electrically active cells, such as neurons, can be cultured over the electrodes, and electrical activity in these cells can be recorded extracellularly. The spontaneous firing of neurons is captured from each electrode on a microsecond timescale providing both temporally and spatially precise data. […] The CCTE_Shafer_MEA_acute assay uses primary cultures of rat cortical neurons. […] The standard deviation of the burst percentages across electrodes is calculated to report a well-level value. The recordings before and after chemical treatment are used to calculate a percent change in the standard deviation of the burst percentage in each well.Data from the assay component CCTE_Shafer_MEA_acute_burst_percentage_std was analyzed into 1 assay endpoint. This assay endpoint, CCTE_Shafer_MEA_acute_burst_percentage_std, was analyzed in the negative analysis fitting direction relative to DMSO as the negative control and baseline of activity. […]
Spontaneous activity in the cortical cultures was recorded using an Axion Biosystems Maestro 768 channel amplifier and Axion Integrated Studios (AxIS) v1.8 (or later) software. […]

[3] = CCTE_Shafer_MEA_acute_per_network_burst_spike_number_mean: CCTE's Neural Acute Assay for Average Number of Spikes in a Network Burst, Shafer Lab (AID 2284019)
How it was run: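 Read-out is mean spike count per network burst, taken as percent change between a 40-min pre-exposure and a 40-min post-exposure recording per well. Rat primary cortical neurons on MEAs at 37 C, DIV 13 or 15; compounds at 0.03-40 uM.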

[4] = CCTE_Shafer_MEA_acute_per_network_burst_spike_number_std: CCTE's Neural Acute Assay for Standard Deviation of Number of Spikes in a Network Burst, Shafer Lab (AID 2284020);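 also: fitted for decrease in spike-number SD versus DMSO so actives lower it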
How it was run: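 Spontaneous network activity of primary rat cortical neurons is recorded extracellularly before and after a 40-min compound exposure (0.03-40 uM) at 37 C. The endpoint is the well's percent change in burst spike-number SD.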

[5] = CCTE_Shafer_MEA_acute_per_network_burst_electrodes_number_mean: CCTE's Neural Acute Assay for Mean Number of Electrodes in a Network Burst, Shafer Lab (AID 2284021);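 also: curves fitted for decreases only so hits reduce electrodes per burst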
Procedure: as §1, with “The” for “The standard deviation of the burst percentages across electrodes is calculated to report a well-level value. The”, “mean number” for “standard deviation”, “electrodes participating in network bursts” for “the burst percentage”, “CCTE_Shafer_MEA_acute_per_network_burst_electrodes_number_mean” for “CCTE_Shafer_MEA_acute_burst_percentage_std”, “CCTE_Shafer_MEA_acute_per_network_burst_electrodes_number_mean,” for “CCTE_Shafer_MEA_acute_burst_percentage_std,”
Spontaneous activity in the cortical cultures was recorded using an Axion Biosystems Maestro 768 channel amplifier and Axion Integrated Studios (AxIS) v1.8 (or later) software. […] Any electrodes with rms noise levels greater than 5 uV were grounded (e.g., no data were recorded). […]

[6] = CCTE_Shafer_MEA_acute_network_burst_percentage: CCTE's Neural Acute Assay for Percentage of Network Bursts, Shafer Lab (AID 2284022);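 also: curves fitted for loss so actives lower network burst percentage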
How it was run: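 Primary rat cortical neurons on 16-electrode MEA wells, treated on DIV 13 or 15 with compound (0.03-40 uM); 40-min baseline and 40-min post-exposure recordings at 37 C. Value is percent change in spikes within network bursts versus baseline, DMSO negative control.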

[7] = CCTE_Shafer_MEA_acute_cross_correlation_area: CCTE's Neural Acute Assay for Area of Cross Correlation, Shafer Lab (AID 2284024);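 also: area under pooled inter-electrode spike cross-correlation near zero lag as percent change from own baseline; curves fitted for loss of cross-correlation area so actives lower synchrony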
How it was run: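 Primary rat cortical neurons on 48-well MEA plates (16 electrodes/well) were recorded 40 min at baseline on DIV 13 or 15, then 40 min with compound (0.03-40 uM) at 37 C; cross-correlation area expressed as percent change from baseline.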

[8] = CCTE_Shafer_MEA_acute_cross_correlation_HWHM: CCTE's Neural Acute Assay for Cross Correlation at Half Width at Half Maximum, Shafer Lab (AID 2284026);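 also: percent change per well from pre-dose baseline in spike cross-correlogram half width; hits are a decrease in cross-correlogram half width relative to DMSO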
How it was run: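 Primary rat cortical neurons on 16-electrode MEA wells; 40-min baseline on DIV 13 or 15, then 40-min recording with compound (0.03-40 uM) at 37 C. HWHM of spike cross-correlogram expressed as percent change from baseline per well, DMSO reference.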

[9] = CCTE_Shafer_MEA_acute_synchrony_index: CCTE's Neural Acute Assay for Synchrony, Shafer Lab (AID 2284027);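 also: fitted for loss of signal so actives lower synchrony relative to DMSO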
How it was run: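 Readout is percent change in the unitless network synchrony index (0 low, 1 high) between a 40-min baseline and a 40-min recording in compound. Cultures were primary rat cortical neurons on MEAs, treated at 0.03-40 uM on DIV 13 or 15.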

[10] = target: Estrogen receptor (Homo sapiens) (UniProt P03372); experiment: CCTE_Deisenroth_AIME_384WELL_LUC_Active: CCTE's 384-well Estrogen Receptor Transactivation Assay with AIME metabolic competence (ERTA luciferase; metabolism positive), Deisenroth Lab (AID 2284030; active = hit-call score of the fitted dose curve at least 0.9, where 1 is the maximum)
How it was run: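 Test chemicals (10-point series, 0.002 - 200 uM) were preincubated 2 hours with alginate-immobilized phenobarbital/beta-naphthoflavone-induced male Sprague Dawley rat liver S9; conditioned medium then went onto VM7Luc4E2 breast cells for 24 hour. Luciferase gain-of-signal fitted relative to 17beta-estradiol.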

Measured: outcome

Cc1c([N+](=O)[O-])cccc1[N+](=O)[O-]
inactive: [1]

O=[N+]([O-])c1cccc([N+](=O)[O-])c1
inactive: [2] | [3] | [4] | [5] | [6] | [7] | [8] | [9] | [10] | [1]

CC(C)OP(C)(=O)OC(C)C
inactive: [2] | [3] | [4] | [5] | [6] | [7] | [8] | [9] | [10] | [1]

COP(C)(=O)OC
inactive: [10] | [1]

Cc1ccc([N+](=O)[O-])cc1[N+](=O)[O-]
inactive: [1]

O=[N+]([O-])OCC(CO[N+](=O)[O-])(CO[N+](=O)[O-])CO[N+](=O)[O-]
inactive: [10]
